Measurements published in PubChem BioAssay AID1508607 (The Scripps Research Institute Molecular Screening Center, 2020).
Only a part is listed here, and it is no random draw. The source made the active and inactive calls.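 How the source made its calls: active means mean percent activation across replicates above the counterscreen hit cutoff of 9.17%; inactive means the rest.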

By UniProt entry, the sequences of proteins in these tests, tags left out.
UniProt Q8TDV5, whole entry: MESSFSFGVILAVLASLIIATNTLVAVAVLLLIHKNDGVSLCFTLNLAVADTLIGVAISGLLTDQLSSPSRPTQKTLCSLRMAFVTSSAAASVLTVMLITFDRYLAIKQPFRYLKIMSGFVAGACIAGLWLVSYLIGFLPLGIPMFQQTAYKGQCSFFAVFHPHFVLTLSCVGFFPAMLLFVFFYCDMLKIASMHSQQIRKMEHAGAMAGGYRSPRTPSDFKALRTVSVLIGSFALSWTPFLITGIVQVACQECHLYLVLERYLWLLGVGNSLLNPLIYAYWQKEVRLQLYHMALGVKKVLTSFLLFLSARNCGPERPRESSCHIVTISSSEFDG

These compounds were tested against Glucose-dependent insulinotropic receptor (Homo sapiens) (UniProt Q8TDV5) (assay: GPR119 activators in beta-arrestin cells, confirmation, counter-screen for GPR151 activator project, cell-based, PathHunter beta-arrestin, luminescence, set 2 (AID 1508607;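 further: 0% = median of sample wells and 100% = wells given EA reagent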)). Conditions: 90 min, at 11.2 µM, active compounds read high.

Row | SMILES | activation
1 | CCCN1CCC(Nc2ccc(Cl)cc2)CC1 | inactive: 2.51%
